Experimental findings from ChEMBL document CHEMBL4017489, “Design, Synthesis, and Evaluation of New Selective NM23-H2 Binders as c-MYC Transcription Inhibitors via Disruption of the NM23-H2/G-Quadruplex Interaction” (J Med Chem, 2017) are described below.

Sequences of proteins named here, by UniProt entry; tags and fusion partners are left off.
UniProt P22392, whole entry: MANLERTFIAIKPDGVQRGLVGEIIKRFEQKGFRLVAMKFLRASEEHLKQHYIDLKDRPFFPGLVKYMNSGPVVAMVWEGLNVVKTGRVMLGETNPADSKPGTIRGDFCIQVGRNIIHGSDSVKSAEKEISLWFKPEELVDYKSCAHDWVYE

For this assay, the target named is Nucleoside diphosphate kinase B (Homo sapiens, UniProt P22392). As to the kind of experiment: Binding affinity to NM23-H2 (unknown origin) assessed as ratio of Kd for protein interaction with biotin-labeled Pu22 c-myc G-quadruplex DNA in presence and absence of compound after 1 hr by ELISA. In outline: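 Biotinylated Pu22 (annealed in 10 mM Tris-HCl pH 7.4, 100 mM KCl) bound to streptavidin plates; NM23-H2 from 4000 nM in ten twofold steps, preincubated 1 h at 25 °C with DMSO or 20 μM compound, then 3 h at 37 °C on plate; anti-NM23-H2/HRP/TMB, A450; Hill-fitted KD, ratio with/without compound; three experiments.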
Background: An ELISA detects its analyte on a solid surface through an enzyme-linked reagent.

Consider `CN(C)CCCNc1cc2nc3n(c(=O)c2cc1F)CC/C3=C\c1ccc(OCc2ccccc2)cc1O`, for which the Ratio is 4.1.

Regarding `O=C(NCCCN1CCCC1)c1ccc(/C=C2\CCn3c2nc2cc(NCCN4CCCC4)c(F)cc2c3=O)cc1`, the Ratio came out at 3.8.
